From patent US6433165B1, “Chemokine receptor antagonists and methods of use therefor” (Millennium Pharmaceuticals, Inc., priority 1998, dated 2002)

Amino acid sequences for entries named in this document (tags omitted).
UniProt P32246, whole entry: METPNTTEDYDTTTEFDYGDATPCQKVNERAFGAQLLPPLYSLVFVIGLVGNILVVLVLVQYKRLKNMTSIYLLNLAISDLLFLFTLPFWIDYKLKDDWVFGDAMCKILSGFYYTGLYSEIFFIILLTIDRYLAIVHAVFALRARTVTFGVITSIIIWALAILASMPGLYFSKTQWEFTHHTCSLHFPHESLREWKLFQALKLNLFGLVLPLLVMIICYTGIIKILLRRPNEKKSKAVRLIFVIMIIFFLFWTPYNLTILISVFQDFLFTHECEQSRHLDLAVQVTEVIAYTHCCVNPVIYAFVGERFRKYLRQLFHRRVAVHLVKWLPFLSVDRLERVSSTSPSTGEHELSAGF

Target: RANTES / MIP-1α binding to THP-1 cell membranes (Homo sapiens, UniProt P32246)
Experiment: Receptor binding assay, 125I-RANTES or 125I-MIP-1α binding to THP-1 cell membranes
Details: read-out: IC50 (inhibitor concentration required for 50% inhibition of specific binding), 125I-RANTES or 125I-MIP-1α as ligand, 60 min at room temperature
Description: Membranes were prepared from THP-1 cells (ATCC #TIB202). Cells were harvested by centrifugation, washed twice with PBS (phosphate-buffered saline), and the cell pellets were frozen at −70 to −85° C. […] This procedure results in cell lysis. The suspension was mixed well to resuspend all of the frozen cell pellet. Nuclei and cell debris were removed by centrifugation of 400×g for 10 minutes at 4° C. The supernatant was transferred to a fresh tube and the membrane fragments were collected by centrifugation at 25,000×g for 30 minutes at 4° C. The supernatant was aspirated and the pellet was resuspended in freezing buffer consisting of 10 mM HEPES pH 7.5, 300 mM sucrose, 1 μg/ml each aprotinin, leupeptin, and chymostatin, and 10 μg/ml PMSF (approximately 0.1 ml per each 10^8 cells). All clumps were resolved using a minihomogenizer, and the total protein concentration was determined using a protein assay kit (Bio-Rad, Hercules, Calif., cat #500-0002). The membrane solution was then aliquoted and frozen at −70 to −85° C. until needed. Binding Assays utilized the membranes described above. […] The filters were rinsed with approximately 600 μl of binding buffer containing 0.5 M NaCl, dried, and the amount of bound radioactivity was determined by scintillation counting in a Topcount beta-plate counter.

IC50 | Structure (SMILES)
< 1000 nM | N#CC1(CCCN2CCC(O)(c3ccc(F)cc3)CC2)c2ccccc2CSc2ccccc21 (centres unmarked)
< 1000 nM | Cc1cccc(C2(O)CCN(CCCC3(C#N)c4ccccc4CSc4ccccc43)CC2)c1 (centres unmarked)
